Results as given in PubChem BioAssay AID540308 (The Scripps Research Institute Molecular Screening Center, 2011).
The list shows a part of the results, in another mix than the full data. Some tests of the compounds listed are not included; inactive here does not mean inactive elsewhere. The source made the active and inactive calls.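 The calls were made as follows: active = activation above a per-plate cutoff, the mean activation of sample wells on that plate plus 3 SD (cut at about 8% in these data); inactive = the rest.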

Chains of the proteins cited; added tags and fusions are not shown.
UniProt P32245, whole entry: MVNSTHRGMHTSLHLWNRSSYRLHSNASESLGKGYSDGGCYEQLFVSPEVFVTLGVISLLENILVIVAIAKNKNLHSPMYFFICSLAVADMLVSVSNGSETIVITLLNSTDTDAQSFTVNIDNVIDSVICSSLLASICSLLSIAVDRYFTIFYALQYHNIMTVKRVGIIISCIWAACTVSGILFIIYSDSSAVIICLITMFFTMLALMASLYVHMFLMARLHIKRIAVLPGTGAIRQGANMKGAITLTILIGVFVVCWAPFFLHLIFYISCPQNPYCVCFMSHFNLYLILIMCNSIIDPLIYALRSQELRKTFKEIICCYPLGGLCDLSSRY

biological target: Melanocortin receptor 4 (Homo sapiens) (UniProt P32245); assay: MC4R agonists recruiting beta-arrestin, primary screen, cell-based, luminescence, agonist arm of biased-ligand search (AID 540308); conditions: U2OS MC4R beta-arrestin complementation, at 8.9 µM, hits give high values, percent of melanotan II response, DMSO zero

| SMILES | activation |
| --- | --- |
| O=C(NCC1(N2CCCCC2)CCCCC1)c1cccc(Cl)c1 | inactive: -0.17% |
| COc1cccc(C(=O)NCC2(N3CCCCC3)CCCCC2)c1 | inactive: -2.98% |
| COc1ccc(Cl)cc1C(=O)NCC1(N(C)C)CCCCC1 | inactive: -0.72% |
| COc1cc(C(=O)NCC2(N(C)C)CCCCC2)c([N+](=O)[O-])cc1OC | inactive: -0.92% |
| CN(C)C1(CNC(=O)c2ccc(Br)cc2)CCCCC1 | inactive: -1.34% |
| CC(C)Oc1ccc(C(=O)NCC2(N(C)C)CCCCC2)cc1 | inactive: -1% |
| O=C(OCCN1CCCC1)C(O)(c1ccccc1)c1ccccc1 | inactive: -1.31% |
| CN(C)c1cccc(C(=O)NCC2(N(C)C)CCCCC2)c1 | inactive: -2.94% |
| C=C(C)C#CC(O)(C(=O)OC1CCN(C)CC1)c1ccccc1 (stereo unspecified) | inactive: -0.72% |
| COc1ccc(Br)c(C(=O)NCC2(N3CCCCC3)CCCCC2)c1 | inactive: -0.47% |
| O=C(OC1CN2CCC1CC2)C(CO)(c1ccccc1)c1ccccc1 (stereo unspecified) | inactive: -0.49% |
| Cc1ccc(C(=O)NCC2(N3CCCCC3)CCCCC2)cc1 | inactive: -0.25% |
| CCN(CC)CC(C)C(C)OC(=O)C(O)(c1ccccc1)c1ccccc1 (stereo unspecified) | inactive: -1.47% |
| COc1cc(SC)ccc1C(=O)NCC1(N(C)C)CCCCC1 | inactive: -0.68% |
| CC(C)N1C(=O)CC2(CCN(CCOC(=O)C(O)(c3ccccc3)c3ccccc3)CC2)C1=O | inactive: -1.62% |
| CN1[C@@H]2CC[C@H]1CC(OC(=O)C(O)(c1ccccc1)c1ccccc1)C2 (stereo partly specified) | inactive: -1.23% |
| O=C(NCC1(N2CCCCC2)CCCCC1)c1cc([N+](=O)[O-])ccc1Cl | inactive: 3.99% |
| COc1ccc(C(=O)NCC2(N(C)C)CCCCC2)cc1 | inactive: -1.05% |
| Cc1cc(C(=O)NCC2(N3CCCCC3)CCCCC2)ccc1[N+](=O)[O-] | inactive: -1.16% |
| CCN1CCCC(OC(=O)C2(O)c3ccccc3C=Cc3ccccc32)C1 (stereo unspecified) | inactive: -1.5% |
| O=C(NCC1(N2CCCCC2)CCCCC1)c1cccc(Br)c1 | inactive: 1.27% |
| C=CCN1CCN(CCOC(=O)C(O)(c2ccccc2)c2ccccc2)CC1 | inactive: 4.36% |
| O=C(NCC1(N2CCCCC2)CCCCC1)c1cc(F)c(F)cc1Cl | inactive: -1.54% |
| Cc1ccccc1C(=O)NCC1(N2CCCCC2)CCCCC1 | inactive: -0.25% |
| CN(C)C1CCCC1OC(=O)C(O)(c1ccccc1)c1ccccc1 (stereo unspecified) | inactive: 1.85% |
| CN(C)c1ccc(C(=O)NCC2(N(C)C)CCCCC2)cc1 | inactive: -2.26% |
